# According to PubChem BioAssay AID1214 (Sanford-Burnham Center for Chemical Genomics, 2008):
# The chains behind the UniProt entries cited, without tags or fusion partners.
# UniProt P34949, whole entry: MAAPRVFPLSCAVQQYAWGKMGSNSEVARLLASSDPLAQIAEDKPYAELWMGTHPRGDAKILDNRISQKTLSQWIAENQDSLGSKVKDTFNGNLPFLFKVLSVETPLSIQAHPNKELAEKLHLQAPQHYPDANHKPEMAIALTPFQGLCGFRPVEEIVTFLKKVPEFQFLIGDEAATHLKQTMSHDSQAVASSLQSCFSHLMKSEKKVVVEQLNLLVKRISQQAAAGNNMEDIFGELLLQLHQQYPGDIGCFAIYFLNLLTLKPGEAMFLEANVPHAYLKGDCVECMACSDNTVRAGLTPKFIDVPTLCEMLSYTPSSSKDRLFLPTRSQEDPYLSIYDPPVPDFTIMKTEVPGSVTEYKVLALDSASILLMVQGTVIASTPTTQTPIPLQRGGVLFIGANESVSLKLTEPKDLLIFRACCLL
# This is one part of the list. Activity calls are given as the source filed them.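 Rule for the calls: active = activation factor of 2 or more at 20 µM, relative to plate controls; inactive = the rest.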
# Target: Mannose-6-phosphate isomerase (Homo sapiens) (UniProt P34949)
# Assay: activators of human PMI, primary screen, biochemical, fluorescence intensity, near-Km mannose 6-phosphate (AID 1214)
# Conditions: purified human PMI, coupled resazurin fluorescence, 20 min, at 20 µM; stronger effect = higher value, 1 = vehicle control, 0 substrate-free wells
row,SMILES,activation factor
1,Cc1cc(SC(NC(=O)c2ccccc2)C(Cl)(Cl)Cl)nc(C(C)C)n1 (stereo not drawn),inactive
2,COc1ccccc1OP(C)(=O)Nc1ccccc1 (stereo not drawn),inactive
3,CP(=O)(Nc1ccccc1Br)Oc1ccccc1 (stereo not drawn),inactive: 1.1
4,CP(=S)(Nn1cnnc1)Oc1ccccc1 (stereo not drawn),inactive: 0.9
5,Cc1cc(C)cc(OP(C)(=O)Nc2ccc(SC(F)(F)F)cc2)c1 (stereo not drawn),inactive: 0.8
6,CP(=O)(NC(=O)Nc1ccccc1)Oc1ccccc1 (stereo not drawn),inactive
7,O=C(COc1ccccc1)OC1CN2CCC1CC2 (stereo not drawn),inactive
8,CP(=O)(Oc1ccccc1)OC(c1ccccc1)C(F)(F)F (stereo not drawn),inactive
9,Cc1cccc(C)c1OP(C)(=O)Nc1ccc(SC(F)(F)F)cc1 (stereo not drawn),inactive: 0.7
10,COP1(=S)c2c(C)nn(CCC#N)c2N=C(c2ccc(F)cc2)N1C (stereo not drawn),inactive
11,CP(=O)(Nc1ccccn1)Oc1ccc(Cl)cc1 (stereo not drawn),inactive
12,CCOP(C)(=S)SCC(=O)NC(C)C(=O)O (stereo not drawn),inactive: 0.9
13,CCOC(=O)c1ccc(NP(C)(=O)Oc2ccc(OC)cc2)cc1 (stereo not drawn),inactive
14,COc1ccc2nc(NP(=O)(c3ccccc3)c3ccccc3)sc2c1,inactive
15,Cc1cc(=O)[nH]c(N[N+](=O)[O-])n1,inactive
16,CCN(CC)CCCOC(=O)C(O)(c1ccccc1)c1ccccc1,inactive: 1.1
17,COc1ccc(N/C(=N/P(=O)(N2CCOCC2)N2CCOCC2)N2CCOCC2)cc1,inactive
18,Cc1cccc(C)c1OP(C)(N)=O (stereo not drawn),inactive: 1.5
19,CC(C)(C)c1ccc(OP(C)(=O)Nc2ccc(SC(F)(F)F)cc2)cc1 (stereo not drawn),inactive: 0.8
20,Cc1ccc2nc3c(c(C)c2c1)CC(C(Cl)Cl)S3 (stereo not drawn),inactive
21,O=[N+]([O-])c1ccc2c(c1)C=Nc1ccccc1O2,inactive: 0.3
22,COc1ccc(OP(C)(=O)Nc2cccc(F)c2)cc1 (stereo not drawn),inactive
23,CCN(CC)C(=S)SC(NC=O)C(Cl)(Cl)Cl (stereo not drawn),inactive
24,COc1ccccc1OP(C)(=O)Nc1cc(Cl)ccc1C (stereo not drawn),inactive
25,Cc1cc(C)cc(OP(C)(N)=O)c1 (stereo not drawn),inactive
26,CCOC(=O)c1ccc(NP(C)(=O)Oc2ccccc2)cc1 (stereo not drawn),inactive
27,Cc1ccc(NP(C)(=O)Oc2ccccc2)c(C)c1 (stereo not drawn),inactive

row,SMILES,activation factor
1,COc1ccccc1OP(C)(=O)Nc1ccc(C)cc1 (stereo not drawn),inactive: 0.9
2,O=P(Nc1nccs1)(Oc1ccccc1)Oc1ccccc1,inactive
3,CCOP1(=S)c2c(C)nn(CCC#N)c2N=C(c2ccc(F)cc2)N1C (stereo not drawn),inactive
4,CC1=NCCc2c1[nH]c1ccccc21.O=[N+]([O-])c1cc([N+](=O)[O-])c(O)c([N+](=O)[O-])c1,inactive
5,O=[N+]([O-])c1ccc2c(c1)nnn2O,inactive
6,Cc1cc(C)cc(OP(C)(=O)Nc2ccc(C)cc2C)c1 (stereo not drawn),inactive: 0.9
7,Cc1cccc(OCC(=O)OC2CN3CCC2CC3)c1 (stereo not drawn),inactive
8,CCOC(=O)c1ccc(NP(C)(=O)Oc2cc(C)cc(C)c2)cc1 (stereo not drawn),inactive
9,COc1cc(C(=O)NCC2(N3CCOCC3)CCCCC2)cc(Cl)c1OC(C)C,inactive
10,Cc1ccc(NCCc2c([N+](=O)[O-])cc([N+](=O)[O-])cc2[N+](=O)[O-])cc1,inactive
11,CP(=O)(Nc1cccc(Br)c1)Oc1ccccc1 (stereo not drawn),inactive: 0.9
12,Cc1cc(C)cc(OP(C)(=O)Nc2ccccn2)c1 (stereo not drawn),inactive
13,Cc1ccc(C)c(NP(C)(=O)Oc2ccccc2)c1 (stereo not drawn),inactive
14,O=[N+]([O-])c1cc([N+](=O)[O-])c(-n2nnc3ccccc32)c([N+](=O)[O-])c1,inactive
15,CN(C(=O)Cc1ccc(Cl)c(Cl)c1)[C@@H]1CCCC[C@H]1N1CCCC1,inactive
16,Cc1nc2ccc3ccccc3c2s1.O=[N+]([O-])c1cc([N+](=O)[O-])c(O)c([N+](=O)[O-])c1,inactive
17,COc1cc(C2NCCC3(OCCO3)C2(C)C)cc(OC)c1OC.O=[N+]([O-])c1cc([N+](=O)[O-])c(O)c([N+](=O)[O-])c1 (stereo not drawn),inactive
18,CP(=O)(Nc1ccc(SC(F)(F)F)cc1)Oc1ccccc1 (stereo not drawn),inactive: 0.9
19,CCCOc1ccc(NP(C)(=O)Oc2ccc(Cl)cc2)cc1 (stereo not drawn),inactive: 0.9
20,O=P1(Nc2ccc(Br)cn2)COc2ccccc2OC1,inactive
21,CN1CCCCC1COC(=O)C1(O)c2ccccc2CCc2ccccc21 (stereo not drawn),inactive: 0.9
22,COc1ccccc1OP(C)(=O)Nc1c(C)cccc1C (stereo not drawn),inactive: 1.1
23,COc1ccc(NP(C)(=O)Oc2ccccc2OC)cc1 (stereo not drawn),inactive
24,CN(C)CCOC(=O)C(O)(c1ccccc1)C1CCCCC1 (stereo not drawn),inactive
25,O=P(Nc1ccccn1)(c1ccc(Br)cc1)c1ccc(Br)cc1,inactive
26,COc1ccc(OP(C)(=O)Nc2cccc(Br)c2)cc1 (stereo not drawn),inactive
